# Data as given in patent publication US10265275B2, “Phenolic coatings and methods of making and using same” (Northwestern University, priority 2013, dated 2019).
# Assay: Potentiometric titration, first pKa
# Format: physicochemical
# Settings: 100 mM KCl, degassed, KOH titration
# Experimental: In order to investigate the relationship between coating pH and deprotonation, coating precursor molecules were studied via potentiometric titrations. A solution of tannic acid was made by dissolving ˜1 mg in 2 mL of 100 mM KCl in a glass test tube to perform the titration. The TA and KOH solutions were degassed by aggressively sparging argon for no less than 30 min. Base was titrated in 1.0 μL increments, and the total amount added was 250 μL. If oxygen is purged correctly, the phenolic solution should display little or no change in color throughout the titration. The first pKa was calculated by initially plotting the volume of base added versus pH. The first derivative of this curve was then plotted as a function of pH, and the pKa was calculated by determining the pH associated with any local maxima.
# Following a similar procedure, the first pKa values for PG, catechol, catechin, HHQ, and EGCG were determined via potentiometric titration (Table 7).
substance,measurement,value
(+)-catechin,First pKa,9.2
